Data on one substance can be found in patent US20140356285A1, “COMPOSITIONS AND METHODS RELATED TO TISSUE TARGETING” (THE BOARD OF REGENTS OF THE UNIVERSITY OF TEXAS SYSTEM, priority 2011, published 2014).

“Also recorded” adds a separate entry of the source.

This experiment concerns the target T1, PR-3 (Homo sapiens, UniProt P24158).
T1 construct: purchased Sigma
T1 sequence (P24158 28-248 limits assumed): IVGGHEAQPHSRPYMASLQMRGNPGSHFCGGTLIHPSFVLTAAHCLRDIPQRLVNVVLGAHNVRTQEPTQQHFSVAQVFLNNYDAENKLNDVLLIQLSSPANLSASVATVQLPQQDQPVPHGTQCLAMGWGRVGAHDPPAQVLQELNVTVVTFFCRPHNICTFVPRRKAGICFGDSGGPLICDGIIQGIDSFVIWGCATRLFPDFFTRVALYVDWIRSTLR
Briefly: ELISA of RAGE binding to immobilized PR-3. The following applies: extracellular portion of human RAGE, endogenous PR-3 (FIG. 4C, 4D). As to the method:
Protein Binding Assays. Titration of anti-peptide antibodies was performed on Maxisorb Immunoplates (Nunc) coated with 1 μg/mL of peptides or proteins. Incubation with primary antibodies was followed by signal detection with goat anti-rabbit HRP-conjugated IgG (Sigma-Aldrich; St. Louis, Mo.) and 3, 3′,5,5′-tetramethylbenzidine (TMB) (Calbiochem). To evaluate protein-protein interactions, the inventors performed ELISA on 96-well plates coated with 1 μg/mL of recombinant candidate receptors, as indicated. Blocking of exposed non-specific binding sites was performed with PBS containing either 2% gelatin or 1% BSA, as indicated. Ligand candidates were added to the wells at different concentrations, as indicated. Specific binding was detected by incubation with appropriate primary and secondary antibodies. For capture experiments, immobilized His6-ANXA2 and ANXAS were incubated with recombinant GST-prohibitin. Protein interaction, assessed by immunoblotting with anti-GST antibody, was detected with anti-rabbit or anti-goat secondary alkaline phosphatase-conjugated polyclonal antibodies.
(In general: In an ELISA, binding on a coated surface is turned into a signal by an enzyme label.)

With “RAGE: extracellular portion of human RAGE, recombinant Fc-tagged protein”, the “binding of RAGE to immobilized PR-3” value is on record as “bound to immobilized PR-3; also recorded: concentration-dependent”.
